# Reference: patent publication US20240000961A1, “ANTIBODY-BASED CONJUGATE FOR ENHANCING THERAPEUTIC EFFECT OF TARGETED THERAPEUTIC AGENT” (THE CATHOLIC UNIVERSITY OF KOREA INDUSTRY-ACADEMIC …, priority 2020, published 2024)
# Assays:
# L929 normal cells = type: cell-based; conditions: MTT, treated 4 hours then cultured 1 day
# NIH3T3 normal cells = type: cell-based; conditions: MTT, treated 4 hours then cultured 1 day
# A431 cancer cells = experiment: Suppression of in vivo cancer growth; conditions: A431 tumours in BALB/c nude mice, intravenous, 0.5 mg/kg five times
# From the text: Thereafter, the effect of suppressing the growth of cancer cells was confirmed by measuring the size and weight of the cancer tissue once every 2 to 3 days.
# [1] = test system: SKOV3 cells (high level of EGFR expression); experiment: Targeting ability by flow cytometry, SKOV3; type: cell-based; conditions: SKOV3, 2 hours, flow cytometer
# [2] = test system: SKOV3 cells (high level of EGFR expression); experiment: Cell targeting by confocal laser scanning microscopy, SKOV3; type: cell-based; conditions: SKOV3, 2 hours
# From the text: (§1) The cell targeting of the cetuximab-maleimide-Pluronic F68-chlorin e6 according to cells with different levels of EGFR expression was visually confirmed by confocal laser scanning microscopy compared to cetuximab-maleimide-polyethylene glycol 2k-chlorin e6.
# (§2) Thereafter, the treated cells were washed with a buffer solution and fixed with 4% paraformaldehyde.
# ASPC-1 cancer cells = conditions: ASPC-1 tumour-bearing nude mice, intravenous, imaged for 120 hours
# [3] = test system: A2780 cells (low level of EGFR expression); experiment: Targeting ability by flow cytometry, A2780; type: cell-based; conditions: A2780, 2 hours, flow cytometer
# [4] = test system: A2780 cells (low level of EGFR expression); experiment: Cell targeting by confocal laser scanning microscopy, A2780; type: cell-based; conditions: A2780, 2 hours
# From the text: as §1, §2
# [5] = test system: SKOV3 cells, ovarian cell line expressing the EGFR; conditions: for cell apoptosis compared to cetuximab antibody (CTX) treatment groups: SKOV3, MTT
Substance,cytotoxicity (L929 normal cells),cytotoxicity (NIH3T3 normal cells),tumor growth compared to PBS control (A431 cancer cells),also measured
"trastuzumab-maleimide-polyethylene glycol 2K [Tra-Mal-PEG2K, reference compound]",non-cytotoxic,non-cytotoxic,–,–
cetuximab-maleimide-polyethylene glycol 2K [CTX-Mal-PEG2K],–,–,grew less rapidly,–
cetuximab-maleimide-Pluronic F68-chlorin e6 [CTX-Mal-PF68-Ce6],–,–,–,fluorescence (targeting ability) compared to cetuximab-maleimide-polyethylene glycol 2k-chlorin e6 [1]: enhanced fluorescence; fluorescence intensity compared to CTX-Mal-PEG2K-Ce6 treatment group [2]: stronger; fluorescence of photosensitizer in cancer tissue compared to CTX-Mal-PEG2K-Ce6 injection group (ASPC-1 cancer cells): more strongly; fluorescence (targeting ability) compared to cetuximab-maleimide-polyethylene glycol 2k-chlorin e6 [3]: enhanced fluorescence; fluorescence intensity compared to CTX-Mal-PEG2K-Ce6 treatment group [4]: stronger
trastuzumab-maleimide-Pluronic F68 [Tra-Mal-PF68],non-cytotoxic,non-cytotoxic,–,–
"trastuzumab-maleimide-polyethylene glycol 6K [Tra-Mal-PEG6K, reference compound]",non-cytotoxic,non-cytotoxic,–,–
cetuximab [CTX],–,–,grew less rapidly,–
cetuximab-maleimide-Pluronic F127 [CTX-Mal-PF127],–,–,cancer growth was inhibited,cell apoptosis compared to cetuximab antibody (CTX) treatment groups [5]: more cell apoptosis
cetuximab-maleimide-polyethylene glycol 6K [CTX-Mal-PEG6K],–,–,grew less rapidly,–
maleimide-Pluronic F127 [Mal-PF127],–,–,–,cytotoxicity [5]: non-cytotoxic
trastuzumab-maleimide-Pluronic F127 [Tra-Mal-PF127],non-cytotoxic,non-cytotoxic,–,–
cetuximab-maleimide-Pluronic F68 [CTX-Mal-PF68],–,–,cancer growth was inhibited,cell apoptosis compared to cetuximab antibody (CTX) treatment groups [5]: more cell apoptosis
